Reference: ChEMBL document CHEMBL4043131, “New prodrugs of two pyrimidine acyclic nucleoside phosphonates: Synthesis and antiviral activity” (Bioorg Med Chem, 2017)

Test system: HEL
Test: Cytotoxicity against HEL cells assessed as reduction in cell growth after 3 days by coulter counter method
Assay type: cell-based
Details: human, 72 h
Summary of the method: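 HEL cells were seeded at 5 × 10³ cells/well and grown for 24 h, then given medium containing graded compound concentrations. After 3 days at 37 °C, cells were counted by Coulter counter.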

SMILES: CCCCCCCCCCCCCCCCNC(=O)[C@@H](N)Cc1ccc(OP(=O)(COCCn2cnc(N)nc2=O)Oc2ccc(C[C@H](N)C(=O)NCCCCCCCCCCCCCCCC)cc2)cc1
- CC50: 27.1 µM
